Data reported in patent US20040097529A1, “Novel use of arylethene sulfonamide derivative” (priority 2001, published 2004).

Assays:
[1] = system: chronic renal failure (5/6Nx) rats; conditions: rat, in vivo, po, 1 mg/kg/day
Description: Male Wistar rats of 8 weeks of age were used in the experiment. A Rat was anesthetized with petobarbital and ⅔ of the left kidney was cut off, and one week after the right kidney was removed completely. Two weeks after the ⅚ nephrectomy, systolic blood pressure (SBP) was measured by a tail-cuff method, and the urine was collected in a metabolic cage for 24 hours to measure the urinary protein excretion. Rats were divided into 3 groups (each group: n=9) so that no difference occurred between the respective groups. Thereafter, a solvent (0.5% MC) was orally administered to the ⅚Nx-Cont. group at a dose of 5 ml/kg over 8 weeks. […] Similarly, to the ⅚Nx-Ena. group was administered 10 mg/kg/day of enalapril maleate dissolved in a solvent (0.5% MC). On the other hand, the solvent (0.5% MC) alone was orally administered to the abdominal-sectioned rats as a control group (Sham). Every 2 weeks, the urine was collected for 24 hours to measure the urinary protein excretion. Additionally, every 4 weeks, SBP was measured to examine the effect on the blood pressure.
The results were indicated by the mean±error. In comparison between the Sham group and the ⅚Nx-Cont. group, a t-test was made without correspondence, and when the significant level is less than 5%, it is considered as a significant difference. […]

[2] = system: diabetic rats induced by streptozotocin (STZ); test: Effect on the blood parameter and urinary parameter in diabetic rats induced by streptozotocin (STZ); type: in vivo, Wistar (Crj) rats
Description: Wistar (Crj) rats of 9 weeks of age were divided into 5 groups so that there was no bias in urinary albumin excretion. To the 4 groups of the rats was administered intravenously STZ (50 mg/kg). […] After the lapse of 2, 4 and 6 weeks from the start of administration, urine was collected for 24 hours in a metabolic cage to measure a urinary parameter. The blood was collected from the tail vein after 2 and 4 weeks and from the abdominal aorta under anesthesia after 6 weeks to measure a blood parameter.
The results were indicated by the mean±error. In comparison between the Sham group and the STZ-Cont. group, a t-test was made without correspondence, and when the significant level is less than 5%, it is considered as a significant difference. In comparison between the STZ-dose groups of rats, multiple comparison (Dunnett's test) was made respectively without correspondence following the variance analysis of one-way classification. When the significant level is less than 5%, it is considered as a significant difference.

[3] = system: rat's glomerular mesangial cells
From the text: The results were indicated by the mean±error. […] When the significant level is less than 5%, it is considered as a significant difference.

[4] = system: spontaneously hypertensive rats (SHR); conditions: rat, in vivo
[5] = Compound 1 0.1 mg/kg p.o., 4 weeks
[6] = Compound 1 1 mg/kg p.o., 4 weeks

COc1ccccc1Oc1c(NS(=O)(=O)C=Cc2ccccc2)nc(-c2ncccn2)nc1OC [Compound 1, N-[6-Methoxy-5-(2-methoxyphenoxy)-2-(pyrimidin-2-yl)pyrimidin-4-yl]-2-phenylethenesulfonamide]
Systolic blood pressure [1]: 135 ± 6 mmHg and 142 ± 6 mmHg and 139 ± 5 mmHg | hypotensive effect (SBP) [1]: no significant hypotension was observed | Blood glucose level ([2]; Compound 1 0.1 mg/kg p.o. once a day, 2 weeks): 357.1 ± 14.5 mg/dL | Blood glucose level ([2]; Compound 1 0.1 mg/kg p.o. once a day, 4 weeks): 396.0 ± 19.4 mg/dL | Blood glucose level ([2]; Compound 1 0.1 mg/kg p.o. once a day, 6 weeks): 417.8 ± 14.6 mg/dL | Urinary albumin excretion ([2]; Compound 1 0.1 mg/kg p.o., 0 week): 0.45 ± 0.03 mg/day | Urinary albumin excretion ([2]; Compound 1 0.1 mg/kg p.o., 2 weeks): 1.03 ± 0.07 mg/day | Blood cholesterol level [2, 5]: 247.5 ± 29.8 mg/dL | Blood triglyceride level [2, 5]: 866.6 ± 97.5 mg/dL | Urinary albumin excretion [2, 5]: 0.74 ± 0.13 mg/day | Urinary albumin excretion ([2]; Compound 1 0.1 mg/kg p.o., 6 weeks): 1.37 ± 0.19 mg/day | Blood glucose level ([2]; Compound 1 1 mg/kg p.o. once a day, 2 weeks): 381.7 ± 12.9 mg/dL | Blood glucose level ([2]; Compound 1 1 mg/kg p.o. once a day, 4 weeks): 376.2 ± 19.6 mg/dL | Blood glucose level ([2]; Compound 1 1 mg/kg p.o. once a day, 6 weeks): 367.1 ± 12.2 mg/dL | Urinary albumin excretion ([2]; Compound 1 1 mg/kg p.o., 0 week): 0.50 ± 0.05 mg/day | Urinary albumin excretion ([2]; Compound 1 1 mg/kg p.o., 2 weeks): 0.67 ± 0.05 mg/day | Blood cholesterol level [2, 6]: 158.1 ± 14.7 mg/dL | Blood triglyceride level [2, 6]: 494.0 ± 55.8 mg/dL | Urinary albumin excretion [2, 6]: 0.46 ± 0.05 mg/day | Urinary albumin excretion ([2]; Compound 1 1 mg/kg p.o., 6 weeks): 1.03 ± 0.12 mg/day | urinary albumin excretion (UAE) change ([2]; Compound 1 0.1 and 1 mg/kg p.o., after 2, 4 and 6 weeks): made UAE decrease dose-dependently | inhibition of the growth of rat's cultured mesangial cells induced by ET-1 [3]: inhibited the growth | effect on the blood pressure [4]: no effect was observed | effect on the heart rate [4]: no effect was observed

COc1ccccc1Oc1c(NS(=O)(=O)C=Cc2ccccc2)nc(-c2ncccn2)nc1OC [Compound A, N-[6-Methoxy-5-(2-methoxyphenoxy)-2-(pyrimidin-2-yl)pyrimidin-4-yl]-2-phenylethenesulfonamide]
effect on the blood pressure [4]: did not change the systemic blood pressure

Where “and” joins values, the source holds several entries; their conditions need not be identical. Equal entries are not always repeated.
